Protein sequences, listed by entry. Tags and fused reporters are not part of them. Residues count along the entry.
UniProt P25774, 115-331: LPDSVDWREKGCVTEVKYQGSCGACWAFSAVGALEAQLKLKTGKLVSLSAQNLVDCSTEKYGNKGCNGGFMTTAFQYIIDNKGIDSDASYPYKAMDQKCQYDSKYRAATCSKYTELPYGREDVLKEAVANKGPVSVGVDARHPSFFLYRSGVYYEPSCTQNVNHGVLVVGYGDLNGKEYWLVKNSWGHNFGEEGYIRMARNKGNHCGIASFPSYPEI

According to US20090099157A1, “TETRAHYDRO-PYRAZOLO-PYRIDINE THIOETHER MODULATORS OF CATHEPSIN S” (priority 2007, published 2009):

Each compound was assayed against Recombinant human cathepsin S (CatS) (Homo sapiens, UniProt P25774) (assay: biochemical).
Compound `CS(=O)(=O)N1CCc2c(c(-c3ccc(C(F)(F)F)c(SCCN4CCC(F)CC4)c3)nn2C[C@@H](O)CN2CCC[C@@H](O)C2)C1` [Example 487, (3R)-1-[(2S)-3-{3-[3-{[2-(4-Fluoropiperidin-1-yl)ethyl]sulfanyl}-4-(trifluoromethyl)phenyl]-5-(methylsulfonyl)-4,5,6,7-tetrahydro-1H-pyrazolo[4,3-c]pyridin-1-yl}-2-hydroxypropyl]piperidin-3-ol] has an IC50 of 330 nM. In the case of `CS(=O)(=O)N1CCc2c(c(-c3ccc(C(F)(F)F)c(SCCN4CCS(=O)(=O)CC4)c3)nn2CCCN2CCC(N3CCCC3=O)CC2)C1` [Example 15, 1-{1-[3-(3-{3-[2-(1,1-Dioxo-1λ^6-thiomorpholin-4-yl)-ethylsulfanyl]-4-trifluoromethyl-phenyl}-5-methanesulfonyl-4,5,6,7-tetrahydro-pyrazolo[4,3-c]pyridin-1-yl)-propyl]-piperidin-4-yl}-pyrrolidin-2-one], the IC50 is reported as 150 nM. For `CS(=O)(=O)N1CCc2c(c(-c3ccc(C(F)(F)F)c(SCCN4CCC(O)CC4)c3)nn2CC(O)CN2CCC(N3CCCC3=O)CC2)C1` (stereo not shown) [Example 170, 1-[1-(2-Hydroxy-3-{3-[3-{[2-(4-hydroxypiperidin-1-yl)ethyl]sulfanyl}-4-(trifluoromethyl)phenyl]-5-(methylsulfonyl)-4,5,6,7-tetrahydro-1H-pyrazolo[4,3-c]pyridin-1-yl}propyl)piperidin-4-yl]pyrrolidin-2-one], the IC50 was 70 nM. `CC(=O)N1CCc2c(c(-c3ccc(C(F)(F)F)c(SCCN4CCCCC4)c3)nn2CC(O)CN2CCCCC2)C1` (stereo not shown) [Example 245, 1-(5-Acetyl-3-{3-[(2-piperidin-1-ylethyl)sulfanyl]-4-(trifluoromethyl)phenyl}-4,5,6,7-tetrahydro-1H-pyrazolo[4,3-c]pyridin-1-yl)-3-piperidin-1-ylpropan-2-ol] was tested, and the IC50 was 800 nM. In the case of `CC(=O)NC1CCN(CCSc2cc(-c3nn(CCCN4CCC(N5CCCC5=O)CC4)c4c3CN(S(C)(=O)=O)CC4)ccc2C(F)(F)F)CC1` [Example 842, N-{1-[2-({5-[5-(Methylsulfonyl)-1-{3-[4-(2-oxopyrrolidin-1-yl)piperidin-1-yl]propyl}-4,5,6,7-tetrahydro-1H-pyrazolo[4,3-c]pyridin-3-yl]-2-(trifluoromethyl)phenyl}sulfanyl)ethyl]piperidin-4-yl}acetamide], the IC50 is reported as 1280 nM. `CS(=O)(=O)N1CCc2c(c(-c3ccc(C(F)(F)F)c(SCCN4CCCCC4)c3)nn2CC(O)CN2CCN(C3CC3)CC2)C1` (stereo not shown) [Example 159, 1-(4-Cyclopropylpiperazin-1-yl)-3-[5-(methylsulfonyl)-3-{3-[(2-piperidin-1-ylethyl)sulfanyl]-4-(trifluoromethyl)phenyl}-4,5,6,7-tetrahydro-1H-pyrazolo[4,3-c]pyridin-1-yl]propan-2-ol] gave an IC50 of 290 nM. `OC(CN1CCOCC1)Cn1nc(-c2ccc(C(F)(F)F)c(SCCN3CCCCC3)c2)c2c1CCNC2` (stereo not shown) [Example 292, 1-Morpholin-4-yl-3-(3-{3-[(2-piperidin-1-ylethyl)sulfanyl]-4-(trifluoromethyl)phenyl}-4,5,6,7-tetrahydro-1H-pyrazolo[4,3-c]pyridin-1-yl)propan-2-ol] showed an IC50 greater than 20000 nM. Compound `CS(=O)(=O)N1CCc2c(c(-c3ccc(C(F)(F)F)c(SCCN4CCSC4)c3)nn2CCCN2CCC(N3CCCC3=O)CC2)C1` [Example 41, 1-[1-(3-{5-Methanesulfonyl-3-[3-(2-thiazolidin-3-yl-ethylsulfanyl)-4-trifluoromethyl-phenyl]-4,5,6,7-tetrahydro-pyrazolo[4,3-c]pyridin-1-yl}-propyl)-piperidin-4-yl]-pyrrolidin-2-one] has an IC50 of 320 nM. Work on `CS(=O)(=O)N1CCc2c(c(-c3ccc(C(F)(F)F)c(SCCN4CCCC(CO)C4)c3)nn2CC(O)CN2CCC(N3CCCC3)CC2)C1` (stereo not shown) [Example 755, 1-{3-[3-({2-[3-(Hydroxymethyl)piperidin-1-yl]ethyl}sulfanyl)-4-(trifluoromethyl)phenyl]-5-(methylsulfonyl)-4,5,6,7-tetrahydro-1H-pyrazolo[4,3-c]pyridin-1-yl}-3-(4-pyrrolidin-1-ylpiperidin-1-yl)propan-2-ol] yielded an IC50 of 550 nM. `OC(CN1CCCC1)Cn1nc(-c2ccc(C(F)(F)F)c(SCCN3CCCCC3)c2)c2c1CCNC2` (stereo not shown) [Example 288, 1-(3-{3-[(2-Piperidin-1-ylethyl)sulfanyl]-4-(trifluoromethyl)phenyl}-4,5,6,7-tetrahydro-1H-pyrazolo[4,3-c]pyridin-1-yl)-3-pyrrolidin-1-ylpropan-2-ol] gave an IC50 greater than 20000 nM. In the case of `O=C(CSc1cc(-c2nn(CC(O)CN3CCC(O)CC3)c3c2CNCC3)ccc1C(F)(F)F)N1CCCC1` (stereo not shown) [Example 294, 1-[2-Hydroxy-3-(3-{3-[(2-oxo-2-pyrrolidin-1-ylethyl)sulfanyl]-4-(trifluoromethyl)phenyl}-4,5,6,7-tetrahydro-1H-pyrazolo[4,3-c]pyridin-1-yl)propyl]piperidin-4-ol], the IC50 is reported as 4430 nM. `CS(=O)(=O)N1CCc2c(c(-c3ccc(C(F)(F)F)c(SCCN4CCC(F)CC4)c3)nn2C[C@@H](O)CN2CCCCCC2)C1` [Example 472, (2S)-1-Azepan-1-yl-3-{3-[3-{[2-(4-fluoropiperidin-1-yl)ethyl]sulfanyl}-4-(trifluoromethyl)phenyl]-5-(methylsulfonyl)-4,5,6,7-tetrahydro-1H-pyrazolo[4,3-c]pyridin-1-yl}propan-2-ol] gave an IC50 of 210 nM. `O[C@@H](CN1CCN(c2ccc(F)cc2)CC1)Cn1nc(-c2ccc(C(F)(F)F)c(SCCN3CCC(F)CC3)c2)c2c1CCNC2` [Example 499, (2S)-1-[4-(4-Fluorophenyl)piperazin-1-yl]-3-{3-[3-{[2-(4-fluoropiperidin-1-yl)ethyl]sulfanyl}-4-(trifluoromethyl)phenyl]-4,5,6,7-tetrahydro-1H-pyrazolo[4,3-c]pyridin-1-yl}propan-2-ol] showed an IC50 of 530 nM. `CS(=O)(=O)N1CCc2c(c(-c3ccc(C(F)(F)F)c(SCCN4CCOCC4)c3)nn2CC(O)CN2CCN(c3ccccc3F)CC2)C1` (stereo not shown) [Example 742, 1-[4-(2-Fluorophenyl)piperazin-1-yl]-3-[5-(methylsulfonyl)-3-{3-[(2-morpholin-4-ylethyl)sulfanyl]-4-(trifluoromethyl)phenyl}-4,5,6,7-tetrahydro-1H-pyrazolo[4,3-c]pyridin-1-yl]propan-2-ol] was tested, and the IC50 was 30 nM. In the case of `OC1CCCN(CCSc2cc(-c3nn(CC(O)CN4CCC(Oc5ncccn5)CC4)c4c3CNCC4)ccc2C(F)(F)F)C1` (stereo not shown) [Example 475, 1-(2-{[5-(1-{2-Hydroxy-3-[4-(pyrimidin-2-yloxy)piperidin-1-yl]propyl}-4,5,6,7-tetrahydro-1H-pyrazolo[4,3-c]pyridin-3-yl)-2-(trifluoromethyl)phenyl]sulfanyl}ethyl)piperidin-3-ol], the IC50 is reported as 4000 nM. With `CS(=O)(=O)N1CCc2c(c(-c3ccc(C(F)(F)F)c(SCCN4CCCC(F)(F)C4)c3)nn2C[C@@H](O)CN2CCCCC2)C1` [Example 208, (2S)-1-{3-[3-{[2-(3,3-Difluoropiperidin-1-yl)ethyl]sulfanyl}-4-(trifluoromethyl)phenyl]-5-(methylsulfonyl)-4,5,6,7-tetrahydro-1H-pyrazolo[4,3-c]pyridin-1-yl}-3-piperidin-1-ylpropan-2-ol] the IC50 was 110 nM.
